US10201532B2, “Compounds and their use” (ALLECRA THERAPEUTICS GMBH, priority 2010, dated 2019)

Test system: KPC2 K. pneumoniae ATCC BAA 1705
Assay: Mice systemic infection model
Type: in vivo
Conditions: sub-cutaneous, three time points post-infection, piperacillin study, survival to 7 days
Experimental: Female Swiss Albino mice, weighing 18-22 g were used for all studies. For each dose group, 5 or 6 mice were included. Study protocols were reviewed and approved by Institutional Animal Ethical Committee, Orchid Research Laboratories Limited. Mice were housed in individually ventilated cages provided with food and water ad libitum, throughout the study period. From overnight culture in Brain-Heart Infusion agar medium, challenge inoculum with required bacterial density was prepared in normal saline containing Hog gastric mucin. In studies involved with doripenem, washed bacterial cells was used. Each mouse was infected […] inoculum by intra-peritoneal injection.
Piperacillin with β-lactamase inhibitor (BLI) combinations: Increasing concentrations of piperacillin and BLIs (Compound-1 or tazobactam) as single agents or piperacillin in combination with BLIs at 1:1 ratio were prepared in aqueous agar (Bacto agar). Infected mice were dosed sub-cutaneously, with drug preparations at three different time points post-infection. […]
Survival of the treated mice were monitored twice a day, up to 7 days post-infection. Efficacy dose 50 (ED50) was calculated by Reed and Muench method (Reed, L. J.; Muench, H. “A simple method of estimating fifty percent endpoints”. The American Journal of Hygiene, 1938, 27: 493-497.).

For CCN1CCN(C(=O)N[C@@H](C(=O)N[C@@H]2C(=O)N3[C@@H]2SC(C)(C)[C@@H]3C(=O)O)c2ccccc2)C(=O)C1=O [Piperacillin], the ED50 (Klebsiella pneumoniae, BAA1705, 168 h, read-out: ED50, single agent) was greater than 800 mg/kg and the “ED50, single agent” value was greater than 800 mg/kg.
